Screening results as filed in PubChem.
Hits are enriched below; roughly 1.8% of the tested compounds scored in any of these assays.
AF4-AF9 inh = inhibitors of AF4 peptide binding to AF9, primary screen, biochemical, AlphaScreen, biotin-AF4 peptide, FLAG-AF9, single point. inhibition, % at 10 µM. 0.47% of 350,000 active. AID 651704, 2012;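 active = every replicate reaching a set inhibition limit, whatever the replicate mean, cut at about 25% in these data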;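 also: 0% = plate neutral control median and 100% = total signal loss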
E-sel inducer = E-selectin induction in HUVECs, primary screen, imaging, HUVEC, immunofluorescence imaging, single point | P16581 | normalized: neutral wells 0, TNF-alpha wells 100 | activation, % at 7.58 µM | 0.37% of 260,000 active | AID 686992, 2013;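 active = mean E-selectin-positive cell signal at least 10% of the positive control, reached in at least 60% of replicates, without over 20% cell loss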
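material = human umbilical vein endothelial cells (HUVEC), E-selectin induction | quantity = 3,000 cells/well | medium = EGM-2 growth medium on 0.1% gelatin-coated wells | technique = immunofluorescence imaging | read-out basis = % PE-positive cells | control set = TNF-alpha positive control, DMSO neutral control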
UUG fidelity = alters start codon recognition fidelity in yeast | S. cerevisiae UUG-firefly luciferase reporter, luminescence/redox ratio | activity score, % at 18.7 µM | 350,000 compounds, 0.13% hits | AID 602363;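 active = replicate mean at a twofold rise or more, about +100% in these data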;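 note: firefly luciferase made from a UUG start codon reports start codon fidelity; reporter light over untreated wells divided by growth signal over untreated wells; some hits fall short of that in this replicate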
SIRT5 inh = SIRT5 desuccinylase inhibitors, primary screen, biochemical, fluorescence imaging, single point, set 5; Purified SirT5, succinyl-peptide AMC, trypsin-coupled fluorescence; inhibition, % at 15 µM; 1.1% of 330,000 active; AID 652115, 2013; in the data active = inhibition above about 15%
RAD54 branch = inhibitors of human RAD54 branch migration, primary screen, biochemical, fluorescence, single point. DNA repair and recombination protein RAD54-like (Homo sapiens), Q92698. inhibition, % at 10.4 µM. 0.14% of 360,000 active. RAD54 Holliday junction branch migration, FAM/BHQ fluorescence. AID 602329, 2012;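 active = mean normalized replicate activity at least 40 and at least half of replicates scoring 40 or more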;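 also: 0% = median of neutral control wells and 100% = median of positive control wells; inhibitors cause a drop in the FAM fluorescence signal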
RAD52 anneal inh = RAD52 DNA annealing inhibitors, primary screen, biochemical, FRET, single point, set 2 | DNA repair protein RAD52 homolog (Homo sapiens), P43351 | recombinant RAD52 DNA annealing, FRET fluorescence | inhibition, % at 18.7 µM | 0.46% of 360,000 active | AID 651710, 2012;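 active = every replicate showing at least 50% inhibition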
An asterisk follows results filed as active; nt = no result.

(1) C[C@@H]1CN([C@H](C)CO)S(=O)(=O)c2ccc(C#CC3CC3)cc2O[C@@H]1CN(C)Cc1ccccc1F
(2) CCOC(=O)C(C)Oc1cccc2c(=O)n(CC(=O)Nc3ccc4c(c3)OCCO4)ccc12 (stereo not given)
(3) CCOC(=O)C(C)Oc1cccc2c(=O)n(CC(=O)Nc3cccc(OC)c3)ccc12 (stereo not given)
(4) CCN(CC)c1ccc2nc3c4ccccc4c(=O)cc-3oc2c1
(5) O=C(O)COc1c(Cl)cc(/C=C2\NC(=O)NC2=O)cc1Br
(6) COc1cc(/C=C2/NC(=O)NC2=O)cc(Br)c1OCc1ccc(C(=O)O)cc1

| Compound | 1 | 2 | 3 | 4 | 5 | 6 |
| --- | --- | --- | --- | --- | --- | --- |
| AF4-AF9 inh | 7 | 45* | -9 | 1 | 1 | 0 |
| E-sel inducer | 0 | 5 | 1 | 203* | nt | nt |
| UUG fidelity | -20 | 15 | 15 | nt | nt | nt |
| SIRT5 inh | 8 | 0 | -11 | -4 | 2 | 15* |
| RAD54 branch | -7 | -16 | 1 | nt | nt | nt |
| RAD52 anneal inh | 8 | -5 | -10 | -30 | -10 | -6 |

(7) O=C(O)C1Nc2c(Cl)cc(Cl)c(Cl)c2C2C=CCC12 (stereo not given)
(8) O=C(O)C1Nc2c(O)cccc2C2C=CCC12 (stereo not given)
(9) O=C(O)C1Nc2c(Cl)cc(Cl)cc2C2C=CCC12 (stereo not given)
(10) O=C(C[C@H]1C[C@@H]2c3cc(NS(=O)(=O)c4ccc(F)cc4)ccc3O[C@@H]2[C@H](CO)O1)NC1CCCCC1
(11) CCOc1cc(C(=O)OC(C)C(=O)Nc2ccc(S(N)(=O)=O)cc2)ccc1OCC(=O)N1CCOCC1 (stereo not given)
(12) CC(C)c1ccc(NC2CCCN(C(=O)CC3CCCC3)C2)cc1 (stereo not given)

| Compound | 7 | 8 | 9 | 10 | 11 | 12 |
| --- | --- | --- | --- | --- | --- | --- |
| AF4-AF9 inh | -4 | 5 | nt | -1 | -4 | 12 |
| E-sel inducer | nt | nt | nt | 0 | 0 | 2 |
| UUG fidelity | -12 | nt | 7 | nt | 10 | -4 |
| SIRT5 inh | 22* | 17* | nt | 0 | 19* | 34* |
| RAD54 branch | 1 | nt | -12 | -1 | 0 | -16 |
| RAD52 anneal inh | -53 | -3 | nt | 18 | -12 | -4 |

(13) Nc1cc2c(cc1Cl)-c1ccccc1C2
(14) O=C(C[C@@H]1CC[C@H]2[C@@H](COC[C@@H](O)CN2S(=O)(=O)c2ccc(Oc3ccccc3)cc2)O1)Nc1ccccc1
(15) CC(C)(C)c1ccc(OC(=O)N2CCOCC2)cc1
(16) CCC(=O)N1[C@H](CO)[C@H](c2ccc(C3=CCCCC3)cc2)[C@H]1CNCC1CCC1
(17) COc1ccc(NC(=O)Nc2ccc3c(c2)CC(=O)N([C@@H](C)CO)C[C@H](C)[C@H](CN(C)Cc2ccc4c(c2)OCO4)O3)cc1
(18) C[C@@H]1CN([C@@H](C)CO)C(=O)Cc2cc(NC(=O)Nc3ccc(F)cc3)ccc2O[C@@H]1CN(C)Cc1ccc(C(=O)O)cc1

| Compound | 13 | 14 | 15 | 16 | 17 | 18 |
| --- | --- | --- | --- | --- | --- | --- |
| AF4-AF9 inh | 50* | 2 | 0 | -34 | 0 | -4 |
| E-sel inducer | 1 | 1 | nt | 0 | 0 | 80* |
| UUG fidelity | 1 | nt | -2 | nt | 47 | 18 |
| SIRT5 inh | -2 | 7 | 16* | -2 | 9 | 0 |
| RAD54 branch | -5 | -9 | 1 | nt | 15 | 5 |
| RAD52 anneal inh | 3 | 3 | -14 | -12 | 5 | 9 |

(19) COc1ccc(CN(C)C[C@@H]2Oc3ccc(NC(=O)Nc4ccc5c(c4)OCO5)cc3CC(=O)N([C@@H](C)CO)C[C@H]2C)cc1
(20) COc1ccc(CN(C)C[C@@H]2Oc3ccc(NC(=O)Nc4ccc(F)cc4)cc3CC(=O)N([C@@H](C)CO)C[C@@H]2C)cc1
(21) O=C(C[C@H]1C[C@H]2c3cc(NC(=O)C4CCC4)ccc3O[C@H]2[C@@H](CO)O1)NCc1cccnc1
(22) COC(=O)[C@@H](Cc1ccccc1)NC(=O)/C=C/[C@H]1O[C@@H](n2cnc3c(NC(=O)c4ccccc4)ncnc32)[C@H](O)[C@@H]1O
(23) O=C(N/N=C/C(Br)=C\c1ccccc1)c1cccs1
(24) C[C@@H]1CCCCO[C@@H](CN(C)C)[C@@H](C)CN([C@H](C)CO)C(=O)c2cc(NC(=O)CCCN(C)C)ccc2O1

| Compound | 19 | 20 | 21 | 22 | 23 | 24 |
| --- | --- | --- | --- | --- | --- | --- |
| AF4-AF9 inh | 27* | 1 | -13 | -1 | 3 | nt |
| E-sel inducer | 0 | 62* | 0 | 0 | nt | 0 |
| UUG fidelity | 6 | 1 | -21 | -9 | -21 | nt |
| SIRT5 inh | 2 | 2 | 2 | 31* | 20* | nt |
| RAD54 branch | 5 | 17 | -3 | -3 | 4 | nt |
| RAD52 anneal inh | 39 | -8 | -2 | -9 | 9 | nt |

(25) Clc1ccc(OCCN2CCCCC2)cc1Cl
(26) ON=C1c2cc(OCCN3CCCCC3)ccc2-c2ccc(OCCN3CCCCC3)cc21
(27) CCC(CC)CN1CCC(CN2C(=S)NC[C@@H]2[C@@H](C)CC)CC1
(28) O=C(NC(Cc1ccccc1)C(=O)NC1CC1)OCc1ccccc1 (stereo not given)
(29) O=C(N[C@@H](Cc1ccccc1)C(=O)NC1CC1)c1ccc(Cl)cc1
(30) CN(C)C(=O)c1cccc(-c2ccc3c(c2)[C@H]2[C@H](CCN2C(=O)c2ccccc2)[C@@H](CO)N3C)c1

| Compound | 25 | 26 | 27 | 28 | 29 | 30 |
| --- | --- | --- | --- | --- | --- | --- |
| AF4-AF9 inh | nt | nt | -1 | -1 | -2 | 1 |
| E-sel inducer | nt | nt | 0 | -1 | nt | 0 |
| UUG fidelity | -10 | 9 | -10 | -9 | -11 | -21 |
| SIRT5 inh | nt | nt | 19* | -3 | 25* | 15* |
| RAD54 branch | -4 | 86* | 8 | 8 | 2 | -2 |
| RAD52 anneal inh | nt | nt | -16 | -1 | 3 | -14 |

In the list so far, 3 contain bromine:
(5) O=C(O)COc1c(Cl)cc(/C=C2\NC(=O)NC2=O)cc1Br
(6) COc1cc(/C=C2/NC(=O)NC2=O)cc(Br)c1OCc1ccc(C(=O)O)cc1
(23) O=C(N/N=C/C(Br)=C\c1ccccc1)c1cccs1

| Compound | 5 | 6 | 23 |
| --- | --- | --- | --- |
| AF4-AF9 inh | 1 | 0 | 3 |
| E-sel inducer | nt | nt | nt |
| UUG fidelity | nt | nt | -21 |
| SIRT5 inh | 2 | 15* | 20* |
| RAD54 branch | nt | nt | 4 |
| RAD52 anneal inh | -10 | -6 | 9 |

Further results
(31) CN1c2ccc(-c3ccc(F)cc3)cc2[C@@H]2[C@@H](CCN2C(=O)c2ccncc2)[C@@H]1CO
(32) COc1ccc(-c2ccc3c(c2)[C@@H]2[C@@H](CCN2C(=O)Nc2ccc(F)cc2)[C@H](CO)N3C)cc1
(33) COc1ccc(-c2ccc3c(c2)[C@@H]2[C@@H](CCN2S(=O)(=O)c2ccc(F)cc2)[C@@H](CO)N3C)cc1
(34) CN1c2ccc(-c3ccccc3)cc2[C@H]2[C@H](CCN2C(=O)c2ccccc2)[C@H]1CO
(35) C[C@H](CO)N1C[C@H](C)[C@H](CN(C)C(=O)Nc2ccc(F)cc2)Oc2c(NC(=O)Nc3ccc(F)cc3)cccc2C1=O
(36) COc1ccc(CN(C)C[C@@H]2Oc3ccc(NS(=O)(=O)c4ccc(F)cc4)cc3CC(=O)N([C@@H](C)CO)C[C@H]2C)cc1

| Compound | 31 | 32 | 33 | 34 | 35 | 36 |
| --- | --- | --- | --- | --- | --- | --- |
| AF4-AF9 inh | nt | 30* | 7 | 15 | 1 | 8 |
| E-sel inducer | 0 | 1 | 0 | 0 | 1 | -14 |
| UUG fidelity | 2 | nt | nt | -8 | 9 | 7 |
| SIRT5 inh | 19* | -3 | 8 | nt | 1 | -1 |
| RAD54 branch | 9 | nt | nt | 0 | -12 | -9 |
| RAD52 anneal inh | -11 | 37 | 90* | 7 | 8 | 27 |
